From patent US20100092429A1, “Composition” (Danisco A/S, priority 2006, published 2010)

Test system: Cl. difficile
Settings: Table 10 second experiment, 24 h, 1 w/v-% carbohydrate

OC[C@H]1O[C@H](O)[C@H](O)[C@@H](O)[C@@H]1O [Glucose, Alpha-D-Glucose]
average area under the growth curve without medium: 346
